Assay results: patent US10214520B2, “Substituted azaspiro(4.5)decane derivatives” (priority 2014, dated 2019)
Like-named read-outs stand apart in the source and are kept apart here.

Sequences of proteins named here, by UniProt entry; tags and fusion partners are left off. A change or cut given only in a name is not applied to a line headed by its entry.
UniProt P35372, whole entry, looked up: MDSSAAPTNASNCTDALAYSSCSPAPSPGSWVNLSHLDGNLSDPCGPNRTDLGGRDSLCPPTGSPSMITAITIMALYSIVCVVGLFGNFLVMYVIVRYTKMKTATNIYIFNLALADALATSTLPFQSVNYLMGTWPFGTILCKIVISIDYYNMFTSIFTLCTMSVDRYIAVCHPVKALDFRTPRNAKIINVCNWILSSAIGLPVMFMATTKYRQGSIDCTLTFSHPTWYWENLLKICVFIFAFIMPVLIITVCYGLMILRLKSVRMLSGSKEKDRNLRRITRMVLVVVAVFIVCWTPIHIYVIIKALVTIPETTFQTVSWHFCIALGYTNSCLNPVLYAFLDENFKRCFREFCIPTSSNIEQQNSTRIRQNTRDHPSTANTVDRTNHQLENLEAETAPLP
UniProt P41146: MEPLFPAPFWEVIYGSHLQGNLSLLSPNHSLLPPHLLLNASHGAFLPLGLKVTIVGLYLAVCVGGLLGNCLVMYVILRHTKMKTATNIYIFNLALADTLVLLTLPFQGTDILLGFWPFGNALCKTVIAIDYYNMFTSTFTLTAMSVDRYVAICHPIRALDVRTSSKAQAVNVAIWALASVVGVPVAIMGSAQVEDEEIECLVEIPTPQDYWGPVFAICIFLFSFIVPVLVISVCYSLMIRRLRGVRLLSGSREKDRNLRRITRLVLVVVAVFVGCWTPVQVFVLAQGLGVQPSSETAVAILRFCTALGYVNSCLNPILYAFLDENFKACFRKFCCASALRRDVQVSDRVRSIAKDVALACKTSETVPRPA

Assays:
human μ opiate receptor = human μ opiate receptor (Homo sapiens, UniProt P35372); experiment: μ opiate receptor binding assay with [3H]-naloxone, membrane preparation of CHO-K1 cells (WGA-SPA beads); conditions: for % inhibition (μ) [1 μM] / MOP % Inhibition @1 μM: test concentration 1 μM
ORL1 receptor = ORL1 receptor (Homo sapiens, UniProt P41146); conditions: for % inhibition (ORL1) [1 μM] / ORL1 % Inhibition @ 1 μM: test concentration 1 μM
[1] = read-out: Ki (ORL1) mean [μm], mean
[2] = read-out: Ki (μ) mean [μm], mean

Compound: CN(C)C1(c2cccs2)CCC2(CCN(Cc3ccncc3)C2=O)CC1 (stereo not shown)
- % inhibition (μ) [1 μM] (human μ opiate receptor): 49.5%
- % inhibition (ORL1) [1 μM] (ORL1 receptor): 16%

Compound: CN(C)C1(c2ccccc2)CCC2(CC1)CN(C(=O)OC(C)(C)C)C(=O)C2Cc1ccccc1 (stereo not shown)
- Ki (human μ opiate receptor; read-out: MOP Ki): 9.3 nM
- MOP % Inhibition @1 μM (human μ opiate receptor): 98%
- Ki (ORL1 receptor; read-out: ORL1 Ki): 8.6 nM
- ORL1 % Inhibition @ 1 μM (ORL1 receptor): 87%

Compound: CN(C)[C@]1(c2ccccc2)CC[C@]2(CC1)CC(=O)N(CCC(=O)NCCc1ccccc1)C2
- Ki (human μ opiate receptor; read-out: MOP Ki): 4.9 nM
- MOP % Inhibition @1 μM (human μ opiate receptor): 100%
- Ki (ORL1 receptor; read-out: ORL1 Ki): 16.5 nM
- ORL1 % Inhibition @ 1 μM (ORL1 receptor): 91%

Compound: Cc1cc(C(=O)NCCCN2C[C@]3(CC[C@@](c4ccccc4)(N(C)C)CC3)CC2=O)on1
- Ki (human μ opiate receptor; read-out: MOP Ki): 58 nM
- MOP % Inhibition @1 μM (human μ opiate receptor): 88%
- Ki (ORL1 receptor; read-out: ORL1 Ki): 275 nM
- ORL1 % Inhibition @ 1 μM (ORL1 receptor): 55%

Compound: CN(C)C1(c2ccccc2)CCC2(CCN(C(=O)CCc3cccnc3)C2)CC1 (stereo not shown)
- Ki (human μ opiate receptor; read-out: MOP Ki): 35.5 nM
- MOP % Inhibition @1 μM (human μ opiate receptor): 99%
- Ki (ORL1 receptor; read-out: ORL1 Ki): 14.5 nM
- ORL1 % Inhibition @ 1 μM (ORL1 receptor): 83%

Compound: CN(C)[C@]1(c2ccccc2)CC[C@]2(CC1)CC(=O)N(CC(=O)Nc1ccncn1)C2
- Ki (human μ opiate receptor; read-out: MOP Ki): 275 nM
- MOP % Inhibition @1 μM (human μ opiate receptor): 70%
- Ki (ORL1 receptor; read-out: ORL1 Ki): 610 nM
- ORL1 % Inhibition @ 1 μM (ORL1 receptor): 28%

Compound: CN(C)C1(c2ccccc2)CCC2(CCN(C(=O)CCc3ccccc3)C2)CC1 (stereo not shown)
- Ki (human μ opiate receptor; read-out: MOP Ki): 1.3 nM
- MOP % Inhibition @1 μM (human μ opiate receptor): 96%
- Ki (ORL1 receptor; read-out: ORL1 Ki): 0.3 nM
- ORL1 % Inhibition @ 1 μM (ORL1 receptor): 95%

Compound: Cc1cnc(N2C[C@]3(CC[C@](c4ccccc4)(N(C)C)CC3)CC2=O)cn1
- Ki (human μ opiate receptor; read-out: MOP Ki): 60 nM
- Ki (ORL1 receptor; read-out: ORL1 Ki): 84.5 nM

Compound: trans-3-(8-Dimethylamino-3-oxo-8-pyridin-2-yl-2-azaspiro[4.5]decan-2-yl)-2,2-dimethyl-propionamide 2,2,2-trifluoro acetate
- MOP % Inhibition @1 μM (human μ opiate receptor): 2%
- ORL1 % Inhibition @ 1 μM (ORL1 receptor): −2%

Compound: CN(C)[C@]1(c2ccccc2)CC[C@]2(CC1)CC(=O)N(CCC(C)(C)C(=O)Nc1ccncn1)C2
- Ki (human μ opiate receptor; read-out: MOP Ki): 5.4 nM
- MOP % Inhibition @1 μM (human μ opiate receptor): 95%
- Ki (ORL1 receptor; read-out: ORL1 Ki): 77 nM
- ORL1 % Inhibition @ 1 μM (ORL1 receptor): 74%

Compound: CN(C)[C@]1(c2ccccc2)CC[C@]2(CC1)CC(=O)N(CCCNC(=O)OC(C)(C)C)C2
- Ki (human μ opiate receptor; read-out: MOP Ki): 31 nM
- MOP % Inhibition @1 μM (human μ opiate receptor): 98%
- Ki (ORL1 receptor; read-out: ORL1 Ki): 210 nM
- ORL1 % Inhibition @ 1 μM (ORL1 receptor): 60%

Compound: CN(C)C1(c2ccccc2)CCC2(CC1)CC(=O)N(CCC(C)(C)C(=O)NCC1CCS(=O)(=O)CC1)C2 (stereo not shown)
- Ki (human μ opiate receptor; read-out: MOP Ki): 27 nM
- MOP % Inhibition @1 μM (human μ opiate receptor): 87%
- Ki (ORL1 receptor; read-out: ORL1 Ki): 26.5 nM
- ORL1 % Inhibition @ 1 μM (ORL1 receptor): 56%

Compound: CN(C)[C@]1(c2ccccc2)CC[C@]2(CC1)CC(=O)N(CCC(C)(C)C(=O)NCc1ccncn1)C2
- Ki (human μ opiate receptor; read-out: MOP Ki): 85.5 nM
- MOP % Inhibition @1 μM (human μ opiate receptor): 90%
- Ki (ORL1 receptor; read-out: ORL1 Ki): 220 nM
- ORL1 % Inhibition @ 1 μM (ORL1 receptor): 54%

Compound: CN(C)[C@]1(c2ccccc2)CC[C@]2(CC1)CC(=O)N(CC(=O)Nc1cnc(C(F)(F)F)nc1)C2
- Ki (human μ opiate receptor; read-out: MOP Ki): 180 nM
- MOP % Inhibition @1 μM (human μ opiate receptor): 79%
- Ki (ORL1 receptor; read-out: ORL1 Ki): 415 nM
- ORL1 % Inhibition @ 1 μM (ORL1 receptor): 44%

Compound: CNC(=O)C(C)(C)N(C)C(=O)CN1CC2(CCC(c3ccccc3)(N(C)C)CC2)CC1=O (stereo not shown)
- Ki (human μ opiate receptor; read-out: MOP Ki): 145 nM
- MOP % Inhibition @1 μM (human μ opiate receptor): 80%
- Ki (ORL1 receptor; read-out: ORL1 Ki): 535 nM
- ORL1 % Inhibition @ 1 μM (ORL1 receptor): 34%

Compound: Cc1ccc(N2C[C@]3(CC[C@@](c4ccccc4)(N(C)C)CC3)CC2=O)c(C#N)c1
- Ki (human μ opiate receptor; read-out: MOP Ki): 2.4 nM
- MOP % Inhibition @1 μM (human μ opiate receptor): 99%
- Ki (ORL1 receptor; read-out: ORL1 Ki): 4.9 nM
- ORL1 % Inhibition @ 1 μM (ORL1 receptor): 94%

Compound: CN(C)C1(C(=O)c2ccccc2)CCC2(CCN(Cc3ccccc3)C2)CC1 (single isomer, unassigned)
- % inhibition (μ) [1 μM] (human μ opiate receptor): 61.5%
- Ki (ORL1 receptor; [1]): 460 nM
- % inhibition (ORL1) [1 μM] (ORL1 receptor): 16.5%

Compound: COC(=O)CCN1CC2(CCC(c3ccccn3)(N(C)C)CC2)CC1=O (stereo not shown)
- Ki (human μ opiate receptor; read-out: MOP Ki): 210 nM
- MOP % Inhibition @1 μM (human μ opiate receptor): 76%
- Ki (ORL1 receptor; read-out: ORL1 Ki): 490 nM
- ORL1 % Inhibition @ 1 μM (ORL1 receptor): 28%

Compound: Trans-2,2-Dimethyl-3-(8-methylamino-3-oxo-8-pyridin-2-yl-2-azaspiro[4.5]decan-2-yl)-propionamide
- MOP % Inhibition @1 μM (human μ opiate receptor): 22%
- ORL1 % Inhibition @ 1 μM (ORL1 receptor): 5%

Compound: CN(C)C1(c2ccc(Cl)s2)CCC2(CCN(C(=O)c3ccccc3)C2)CC1 (stereo not shown)
- Ki (human μ opiate receptor; [2]): 10.7 nM
- % inhibition (μ) [1 μM] (human μ opiate receptor): 95.5%
- Ki (ORL1 receptor; [1]): 64.5 nM
- % inhibition (ORL1) [1 μM] (ORL1 receptor): 68.5%

Compound: CNC(=O)C(C)(C)CCN1C[C@]2(CC[C@@](c3ccccc3)(N(C)C)CC2)CC1=O
- Ki (human μ opiate receptor; read-out: MOP Ki): 36.5 nM
- MOP % Inhibition @1 μM (human μ opiate receptor): 96%
- Ki (ORL1 receptor; read-out: ORL1 Ki): 41 nM
- ORL1 % Inhibition @ 1 μM (ORL1 receptor): 74%

Compound: O=C(c1ccccc1)N1CCC2(CCC(c3ccccc3)(N3CCC3)CC2)C1 (stereo not shown)
- Ki (human μ opiate receptor; [2]): 1110 nM
- % inhibition (μ) [1 μM] (human μ opiate receptor): 34.5%
- Ki (ORL1 receptor; [1]): 1110 nM
- % inhibition (ORL1) [1 μM] (ORL1 receptor): 21.5%

Compound: CN(C)C1(c2ccccc2)CCC2(CC1)CC(=O)N(CCC(C)(C)C(=O)NC1CCS(=O)(=O)CC1)C2 (stereo not shown)
- Ki (human μ opiate receptor; read-out: MOP Ki): 34 nM
- MOP % Inhibition @1 μM (human μ opiate receptor): 92%
- Ki (ORL1 receptor; read-out: ORL1 Ki): 215 nM
- ORL1 % Inhibition @ 1 μM (ORL1 receptor): 54%

Compound: CN(C)C1(c2ccccc2)CCC2(CCN(C(=O)C(C)(C)C(N)=O)C2)CC1 (stereo not shown)
- Ki (human μ opiate receptor; read-out: MOP Ki): 56 nM
- MOP % Inhibition @1 μM (human μ opiate receptor): 87%
- Ki (ORL1 receptor; read-out: ORL1 Ki): 160 nM
- ORL1 % Inhibition @ 1 μM (ORL1 receptor): 55%

Compound: COCCCNC(=O)CN1C[C@]2(CC[C@@](c3ccccc3)(N(C)C)CC2)CC1=O
- Ki (human μ opiate receptor; read-out: MOP Ki): 33 nM
- MOP % Inhibition @1 μM (human μ opiate receptor): 88%
- Ki (ORL1 receptor; read-out: ORL1 Ki): 42 nM
- ORL1 % Inhibition @ 1 μM (ORL1 receptor): 65%
